Data as given in ChEMBL document CHEMBL1143970, “Structure-activity relationships and CoMFA of N-3 substituted phenoxypropyl piperidine benzimidazol-2-one analogues as NOP receptor agonists with analgesic properties” (Bioorg Med Chem, 2008).

assay: Agonist activity at human NOP receptor expressed in CHO cells assessed as forskolin-induced cAMP

Compared with `COc1ccc(C)c(OC(CCN2CCC(n3c(=O)n(Cc4nc(C)no4)c4ccccc43)CC2)C(C)C)c1` (centres undefined), `COc1ccc(C)c(OC(CCN2CCC(n3c(=O)n(Cc4c(C)noc4C)c4ccccc43)CC2)C(C)C)c1` (centres undefined) is 2.1-fold lower in IC50: 0.394 µM for the first, 0.187 µM for the second. The second is the more potent here.

`COc1ccc(C)c(OC(CCN2CCC(n3c(=O)n(Cc4cccs4)c4ccccc43)CC2)C(C)C)c1` (centres undefined) and `COc1ccc(C)c(OC(CCN2CCC(n3c(=O)n(Cc4ccsc4)c4ccccc43)CC2)C(C)C)c1` (centres undefined) are within 1.5-fold of each other in IC50: 0.15 µM for the first, 0.193 µM for the second.

First: COc1ccc(C)c(OC(CCN2CCC(n3c(=O)n(Cc4ccccn4)c4ccccc43)CC2)C(C)C)c1 (centres undefined)
Second: COc1ccc(C)c(OC(CCN2CCC(n3c(=O)n(Cc4cnccn4)c4ccccc43)CC2)C(C)C)c1 (centres undefined)
The IC50 of the first is 4.9-fold lower: 0.0954 µM for the first, 0.468 µM for the second.

Going from `COc1ccc(C)c(OC(CCN2CCC(n3c(=O)n(Cn4cccn4)c4ccccc43)CC2)C(C)C)c1` (centres undefined) to `COc1ccc(C)c(OC(CCN2CCC(n3c(=O)n(Cn4cncn4)c4ccccc43)CC2)C(C)C)c1` (centres undefined), the IC50 falls from 0.103 µM to 0.0395 µM (2.6-fold). The second is the more potent here.

`COc1ccc(C)c(OC(CCN2CCC(n3c(=O)n(Cc4ncco4)c4ccccc43)CC2)C(C)C)c1` (centres undefined) and `COc1ccc(C)c(OC(CCN2CCC(n3c(=O)n(Cc4cocn4)c4ccccc43)CC2)C(C)C)c1` (centres undefined) are within 1.5-fold of each other in IC50: 0.0291 µM for the first, 0.0223 µM for the second.

First: COc1ccc(C)c(OC(CCN2CCC(n3c(=O)n(Cc4nnc(C)[nH]4)c4ccccc43)CC2)C(C)C)c1 (centres undefined)
Second: COc1ccc(C)c(OC(CCN2CCC(n3c(=O)n(Cc4n[nH]c(=O)[nH]4)c4ccccc43)CC2)C(C)C)c1 (centres undefined)
The IC50 of the first is 8.4-fold higher: 0.506 µM for the first, 0.0604 µM for the second. The second is the more potent here.

First: COc1ccc(C)c(OC(CCN2CCC(n3c(=O)n(Cc4cnn[nH]4)c4ccccc43)CC2)C(C)C)c1 (centres undefined)
Second: COc1ccc(C)c(OC(CCN2CCC(n3c(=O)n(Cc4c[nH]cn4)c4ccccc43)CC2)C(C)C)c1 (centres undefined)
The IC50 of the first is 1.9-fold higher: 0.254 µM for the first, 0.134 µM for the second. The second is the more potent here.

Compared with `COc1ccc(C)c(OC(CCN2CCC(n3c(=O)n(Cc4cccnc4)c4ccccc43)CC2)C(C)C)c1` (centres undefined), `COc1ccc(C)c(OC(CCN2CCC(n3c(=O)n(Cc4ccncc4)c4ccccc43)CC2)C(C)C)c1` (centres undefined) is 2.5-fold higher in IC50: 0.33 µM for the first, 0.816 µM for the second. The first is the more potent here.

`COc1ccc(C)c(OC(CCN2CCC(n3c(=O)n(Cn4ccnc4C)c4ccccc43)CC2)C(C)C)c1` (centres undefined) and `COc1ccc(C)c(OC(CCN2CCC(n3c(=O)n(Cn4ccnc4)c4ccccc43)CC2)C(C)C)c1` (centres undefined) are within 1.5-fold of each other in IC50: 0.361 µM for the first, 0.297 µM for the second.

Compared with `CNC(=O)Cn1c(=O)n(C2CCN(CCC(Oc3cc(OC)ccc3C)C(C)C)CC2)c2ccccc21` (centres undefined), `COc1ccc(C)c(OC(CCN2CCC(n3c(=O)n(Cc4cc(C)on4)c4ccccc43)CC2)C(C)C)c1` (centres undefined) is 130-fold higher in IC50: 0.01 µM for the first, 1.3 µM for the second. The first is the more potent here.

Going from `COc1ccc(C)c(OC(CCN2CCC(n3c(=O)n(Cc4ncon4)c4ccccc43)CC2)C(C)C)c1` (centres undefined) to `COc1ccc(C)c(OC(CCN2CCC(n3c(=O)n(Cc4ncnn4C)c4ccccc43)CC2)C(C)C)c1` (centres undefined), the IC50 rises from 0.0328 µM to 0.0779 µM (2.4-fold).

`COc1ccc(C)c(OC(CCN2CCC(n3c(=O)n(Cc4cscn4)c4ccccc43)CC2)C(C)C)c1` (centres undefined) gave an IC50 of 0.0311 µM.

In the case of `COc1ccc(C)c(OC(CCN2CCC(n3c(=O)n(Cc4ncn[nH]4)c4ccccc43)CC2)C(C)C)c1` (centres undefined), the IC50 is reported as 0.0115 µM and 0.0108 µM.

Values joined by “and” are separate entries in the source; they are usually repeats but may differ in a detail not shown here. Identical values can stand only once.
